Legend:
[1] = Solubility test in hydrocarbon-based solvent n-hexane; conditions: 25° C., 0.5 parts by mass added to 100 parts, ultrasonic 5 minutes, left 1 day, visually observed
Method: (§1) To a predetermined amount of Vertrel XF or n-hexane, the ionic liquid, Z-DOL, or Z-TETRAOL was added. Ultrasonic waves were applied to the resultant mixture for 5 minutes, followed by leaving the mixture to stand for 1 day. The solubility was visually observed.
(§2) In case of n-hexane, similarly, 0.5 parts by mass of the ionic liquid, Z-DOL, or Z-TETRAOL was added to 100 parts by mass of n-hexane at 25° C. After applying ultrasonic waves to the resultant for 5 minutes, the resultant was left to stand for 1 day. Thereafter, the solubility was visually observed and evaluated based on the following evaluation criteria.
[Evaluation Criteria (Hydrocarbon-Based Solvent)]
• 0.5% by mass or greater:
Soluble with addition of 0.5 parts by mass • Less than 0.5% by mass:
Insoluble with addition of 0.5 parts by mass
(§3) Note that, the solubility was visually observed, and it was judged as soluble when it was transparent. Moreover, it was judged as not soluble (insoluble) when it was opaque or insoluble components were observed.

[2] = Solubility test in fluorine-based solvent Vertrel XF; conditions: 25° C., 0.2 parts by mass added to 100 parts, ultrasonic 5 minutes, left 1 day, visually observed
Method: as §1
as §2, with “Specifically, 0.2” for “In case of n-hexane, similarly, 0.5”, “Vertrel XF (25° C.).” for “n-hexane at 25° C.”
[Evaluation Criteria (Fluorine-Based Solvent)]
• 0.2% by mass or greater:
Soluble with addition of 0.2 parts by mass • Less than 0.2% by mass:
Insoluble with addition of 0.2 parts by mass
as §3

| Substance | Solubility n-hexane [1] [% by mass] | Solubility n-hexane ([1]; listed as Example 1A) [% by mass] | Solubility Vertrel XF [2] [% by mass] | Solubility Vertrel XF ([2]; listed as Example 1A) [% by mass] | Solubility n-hexane ([1]; listed as Example 3A) [% by mass] | Solubility Vertrel XF ([2]; listed as Example 3A) |
| --- | --- | --- | --- | --- | --- | --- |
| nonafluorobutanesulfonic acid-1,3-didodecyl-2-undecylimidazolium [Ex. 1A] | ≥ 0.5 | ≥ 0.5 | ≥ 0.2 | ≥ 0.2 |  |  |
| nonafluorobutanesulfonic acid-1,3-dioctadecyl-2-heptadecylimidazolium [Ex. 3A] | ≥ 0.5 |  | < 0.2 |  | ≥ 0.5 | less than 0.2 % by mass |
| nonafluorobutanesulfonic acid-1-octadecylimidazolium [Comp. Ex. 1A, reference compound] | < 0.5 |  | < 0.2 |  |  |  |
| pentadecafluorooctanoic acid octadecyl ammonium salt [Comp. Ex. 4A, reference compound] | < 0.5 |  | < 0.2 |  |  |  |

Reference: patent publication US10106757B2, “Ionic liquid, lubricant, and magnetic recording medium” (DEXERIALS CORPORATION, priority 2016, dated 2018)
